This is a sample that favours compounds with a hit; in the whole collection about 2.8% have one here.
PglD DTNB: C. jejuni PglD acetyltransferase inhibitors, primary screen, biochemical, DTNB colorimetric, single point; UDP-N-acetylbacillosamine N-acetyltransferase PglD (Campylobacter jejuni); purified PglD enzyme, DTNB colorimetric CoA detection; inhibition, % at 12.5 µM; 360,000 tested, 0.098% active; AID 602405, 2012; in the data active = inhibition above about 16%, passing the limit was not always enough; inconclusive = no clear call, values can overlap the other calls
MITF TRPM1 HTS: activators of MITF-driven TRPM1 promoter reporter, primary screen, cell-based, SK-MEL-5, luciferase, single point | SK-MEL-5 TRPM1-promoter luciferase, 24 h; % of positive control, neutral wells = 0 | activation, % at 12.5 µM | 300,000 tested, 0.75% active | AID 588334, 2011;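 active = mean activation of at least 80% with every replicate also reaching 80%; inconclusive = mean reaches 80% but some replicate falls short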
Wnt act: Wnt/beta-catenin pathway activators, primary screen, cell-based, plate reader, single point | Wnt/beta-catenin reporter cell assay, activator | activation, % at 9.35 µM | 300,000 tested, 1.2% active; in the data active = activation above about 30%, passing the limit was not always enough; inconclusive = no clear call, values can overlap the other calls
UUG fidelity: modulators of start codon recognition fidelity in yeast; AID 602363; activity score, % at 18.7 µM; S. cerevisiae UUG-firefly luciferase reporter, luminescence/redox ratio; actives 0.13% (n = 350,000);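 active = replicate mean at a twofold rise or more, about +100% in these data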;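 note: firefly luciferase made from a UUG start codon reports start codon fidelity; reporter light over untreated wells divided by growth signal over untreated wells; some hits fall short of that in this replicate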
esBAF inh: Bmi1 luciferase reporter increase in mESCs, primary screen, esBAF inhibitor project, mouse ES cells, Bmi1 luciferase knock-in, single point. 24 h; 100% = twice the neutral-well signal. 350,000 tested, 2% active. reporter increase, % at 12.5 µM. AID 602393, 2012; in the data active = activation above about 40%; inconclusive = no clear call, values can overlap the other calls;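 also: a rise in the Bmi1 reporter signal indicates esBAF inhibition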
miR-122 sensor: miR-122 Renilla sensor signal increase in Huh7, primary screen, miR-122 inhibitor project, cell-based, single point, plate reader; 340,000 tested, 0.3% active; activation (reporter increase), % at 12.5 µM; Huh7 miR-122 Renilla luciferase sensor, 48 h; neutral wells = 0, positive control = 100; AID 602342, 2012;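 active = mean replicate activation score at least 90 and every replicate individually at or above 90; inconclusive = only one of the two criteria met; inactive = neither criterion met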;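 also: higher luciferase means less miR-122 activity so hits act as miR-122 inhibitors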
Large screens that a line does not name were inactive.

CC(Cc1cccs1)NC(=O)Nc1ccccc1 (centres undefined)	none (no result: Wnt act)
O=C(NC(=S)Nc1ccc(S(=O)(=O)NC2CCCCC2)cc1)c1cccs1	miR-122 sensor 396 (no result: esBAF inh)
O=C(NC(=S)Nc1ccccc1)c1cccs1	MITF TRPM1 HTS 101, esBAF inh 78
O=C(NC(=S)Nc1ccc(Br)cn1)c1cccs1	Wnt act 59 (no result: esBAF inh)
O=C(NC(=S)Nc1ccc(Br)cn1)c1cncc(Br)c1	none (no result: Wnt act)
Cc1ccc(NC(=S)NC(=O)c2cccs2)cc1F	MITF TRPM1 HTS 93, esBAF inh 81
CC(=O)NC(=S)Nc1ccc(NC(=O)c2cccs2)cc1	none (no result: PglD DTNB, Wnt act, UUG fidelity, esBAF inh, miR-122 sensor)
CC(C)NC(=O)Nc1ccc2c(c1)C(=O)N([C@@H](C)CO)C[C@@H](C)[C@@H](CN(C)C(=O)CCCN(C)C)OCCCC[C@H](C)O2	none (no result: MITF TRPM1 HTS, Wnt act, UUG fidelity, esBAF inh)
CCCn1cnc2cc(NC(=O)c3ccco3)ccc21	none (no result: miR-122 sensor)
Cc1cccnc1NC(=O)CNC(=O)c1cccs1	none (no result: PglD DTNB, UUG fidelity)
Cc1cccnc1NC(=S)NC(=O)c1cccs1	Wnt act 34
CCCn1cnc2cc(NC(=O)c3cccs3)ccc21	MITF TRPM1 HTS 94, Wnt act 32, esBAF inh 55
O=C(Nc1ccc(NC(=O)c2cccs2)cc1)c1cccs1	MITF TRPM1 HTS inconclusive, esBAF inh 53
O=C(Nc1ccc2[nH]ccc2c1)c1cccs1	MITF TRPM1 HTS 106
Cc1ccc(NC(=O)c2ccccc2NC(=O)Cc2ccccc2)cc1	Wnt act 35 (no result: PglD DTNB, UUG fidelity, esBAF inh, miR-122 sensor)
Cc1nc(-c2ccc(NC(=O)Cc3ccccc3)cc2)cs1	esBAF inh 49
C/C(=N\NC(=O)c1cccc(C)c1O)c1ccc(NC(=O)Cc2ccccc2)cc1	MITF TRPM1 HTS 92 (no result: esBAF inh)
Cc1nc(-c2ccc(NC(=O)c3ccccc3Br)cc2)cs1	MITF TRPM1 HTS inconclusive, Wnt act 65 (no result: PglD DTNB, UUG fidelity, esBAF inh, miR-122 sensor)
C[C@@H]1CN([C@@H](C)CO)C(=O)c2cc(-c3cccc(C(=O)N(C)C)c3)cnc2O[C@H]1CN(C)S(=O)(=O)c1cccc(F)c1	none (no result: MITF TRPM1 HTS, Wnt act)
C[C@H]1CN([C@@H](C)CO)S(=O)(=O)c2ccc(C#CC3CC3)cc2O[C@H]1CN(C)C(=O)C1CCCCC1	none (no result: PglD DTNB, MITF TRPM1 HTS, Wnt act)
CC(C)NC(=O)N(C)C[C@H]1Oc2ncc(C#Cc3ccccc3F)cc2C(=O)N([C@H](C)CO)C[C@@H]1C	none (no result: MITF TRPM1 HTS, Wnt act)
C[C@@H]1CN([C@H](C)CO)C(=O)c2cc(/C=C/c3ccccc3)cnc2O[C@@H]1CN(C)S(C)(=O)=O	none (no result: MITF TRPM1 HTS, Wnt act)
O=C(C[C@H]1C[C@H]2c3cc(NC(=O)Nc4ccccc4F)ccc3O[C@H]2[C@H](CO)O1)NCc1ccncc1	none (no result: MITF TRPM1 HTS, Wnt act)
Cc1nc(-c2ccc(NC(=O)c3ccccc3C)cc2)cs1	esBAF inh 86
C[C@H](CO)N1C[C@H](C)[C@H](CN(C)C(=O)Cc2ccccc2)OCCCC[C@H](C)Oc2ccc(NC(=O)Nc3ccc(C(F)(F)F)cc3)cc2C1=O	none (no result: MITF TRPM1 HTS, Wnt act)
COc1cccc(CC(=O)Nc2ccc(N3CCOCC3)c(S(=O)(=O)Nc3ccccc3OC)c2)c1	miR-122 sensor 129 (no result: MITF TRPM1 HTS)
COCC(=O)Nc1ccc(N2CCOCC2)c(S(=O)(=O)Nc2ccc(OC)cc2)c1	none
COc1ccc(S(=O)(=O)Nc2ccc(S(=O)(=O)N3CCOCC3)cc2)cc1	miR-122 sensor 160 (no result: MITF TRPM1 HTS, Wnt act)
COc1ccc(S(=O)(=O)Nc2ccc(N3CCOCC3)cc2)cc1	none
COc1ccc(NS(=O)(=O)c2cc(NC(=O)COc3ccc(OC)cc3)ccc2N2CCOCC2)cc1	miR-122 sensor 110
Cc1noc(C)c1NC(=O)Nc1ccc2c(c1)C(=O)N([C@@H](C)CO)C[C@@H](C)[C@@H](CN(C)C(=O)CCCN(C)C)OCCCC[C@@H](C)O2	none (no result: MITF TRPM1 HTS, Wnt act)
C/C(=C\c1ccc(C(=O)O)cc1)c1ccc2c(c1)C(C)(C)CCC2(C)C	esBAF inh 46
CC(=O)C(=Cc1ccc(C(=O)O)cc1)C(C)=O	none (no result: PglD DTNB, UUG fidelity, esBAF inh, miR-122 sensor)
CC(=O)Nc1nnc(SCc2cccc(F)c2)s1	none (no result: PglD DTNB)
Cc1nnc(SCc2cccc3ccccc23)s1	esBAF inh 64
Cc1nnc(SCc2ccc(F)cc2)s1	esBAF inh 53 (no result: Wnt act)
CC(=O)Nc1nnc(SCc2ccc(F)cc2)s1	esBAF inh 46
O=C(C[C@@H]1C=C[C@@H](NS(=O)(=O)c2ccccc2F)[C@H](CO)O1)NCCCN1CCOCC1	none (no result: MITF TRPM1 HTS, Wnt act, UUG fidelity, miR-122 sensor)
COc1ccc2oc(=O)c(C(=O)N3CCN(c4ccccc4C)CC3)cc2c1	MITF TRPM1 HTS 105, Wnt act 49, esBAF inh 76 (no result: PglD DTNB)
COc1ccc2oc(=N)c(C(=O)Nc3ccc(F)cc3)cc2c1	none (no result: PglD DTNB, UUG fidelity, esBAF inh, miR-122 sensor)
N=c1oc2ccc(Cl)cc2cc1C(=O)Nc1ccc(F)cc1	Wnt act 36
CN(C)S(=O)(=O)Oc1cccc(C(=O)Nc2ccccc2Cl)c1	esBAF inh 72 (no result: MITF TRPM1 HTS)
COc1ccc2oc(=N)c(C(=O)Nc3ccc(C)cc3)cc2c1	esBAF inh 43
CCNC(=O)C[C@@H]1CC[C@@H]2[C@H](COc3ccc(NC(=O)c4ccc(F)c(F)c4)cc3C(=O)N2C)O1	none (no result: MITF TRPM1 HTS, Wnt act)
CCNC(=O)C[C@@H]1CC[C@@H]2[C@H](COc3ccc(NC(=O)c4ccc(F)cc4)cc3C(=O)N2C)O1	none (no result: MITF TRPM1 HTS, Wnt act)
C[C@H](CO)N1C[C@H](C)[C@H](CN(C)C(=O)Nc2ccc(F)cc2)Oc2ccc(NS(C)(=O)=O)cc2CC1=O	none (no result: MITF TRPM1 HTS, Wnt act)
COc1cc2ccccc2cc1C(=O)Nc1ccccc1Cl	Wnt act 45, esBAF inh inconclusive
COc1ccc2oc(=N)c(C(=O)Nc3ccccc3Cl)cc2c1	esBAF inh 56 (no result: MITF TRPM1 HTS)
COc1ccc2oc(=N)c(C(=O)Nc3cccc(C)c3C)cc2c1	esBAF inh 80
COc1ccc2oc(=N)c(C(=O)Nc3ccccc3)cc2c1	none (no result: Wnt act)
C[C@@H]1CCCCO[C@H](CN(C)S(=O)(=O)c2cccs2)[C@@H](C)CN([C@@H](C)CO)C(=O)c2cc(NS(=O)(=O)c3ccc(F)cc3)ccc2O1	none (no result: MITF TRPM1 HTS, Wnt act)
CSc1nc2c(cnn2-c2ccccc2)c(=O)n1N	esBAF inh 48 (no result: PglD DTNB, Wnt act, UUG fidelity)
O=C(NC1Cc2ccccc2C1)[C@H]1[C@H](CO)[C@H]2Cn3c(cccc3=O)[C@@H]1N2Cc1ccccc1F	none (no result: MITF TRPM1 HTS, Wnt act, UUG fidelity)
CO[C@@H]1CN(C)C(=O)c2ccc(NC(=O)c3nc4ccccc4s3)cc2OC[C@H](C)N(Cc2ccncc2)C[C@@H]1C	none (no result: MITF TRPM1 HTS, Wnt act, miR-122 sensor)
CC(=O)Nc1cc2c(cc1[N+](=O)[O-])-c1ccc(F)cc1C2	esBAF inh 52 (no result: miR-122 sensor)
CC(=O)Nc1cc(F)c2c(c1F)Cc1cc(F)ccc1-2	esBAF inh 103 (no result: miR-122 sensor)
CC(=O)Nc1ccc2c(c1)-c1ccc(F)cc1C2	none (no result: PglD DTNB, UUG fidelity, esBAF inh, miR-122 sensor)
O=C(C[C@H]1CC[C@@H]2[C@H](COC[C@@H](O)CN2S(=O)(=O)c2ccccc2)O1)Nc1ccccc1	none (no result: MITF TRPM1 HTS, Wnt act, UUG fidelity)
